In publication PMC7587369, “Antitumor Activity of Ruthenium(II) Terpyridine Complexes towards Colon Cancer Cells In Vitro and In Vivo” (Molecules, 2020):

Experiment: Systemic toxicity in CT26 tumor-bearing mice (body and organ weight, serum biochemistry, histopathology)
Conditions: 2 mg/kg i.p.

## O=C1[O][Pt]2([NH][C@@H]3CCCC[C@H]3[NH]2)[O]C1=O [Oxaliplatin, oxaliplatin, reference compound]
  serum concentration of urea compared to saline-treated mice: did not affect
